Drawing on PMC12487681, this text covers IC50 for 1 compound.

By UniProt entry, the sequences of proteins in these tests, tags left out. Residues count along the entry.
UniProt O15382, 28-392 limits assumed: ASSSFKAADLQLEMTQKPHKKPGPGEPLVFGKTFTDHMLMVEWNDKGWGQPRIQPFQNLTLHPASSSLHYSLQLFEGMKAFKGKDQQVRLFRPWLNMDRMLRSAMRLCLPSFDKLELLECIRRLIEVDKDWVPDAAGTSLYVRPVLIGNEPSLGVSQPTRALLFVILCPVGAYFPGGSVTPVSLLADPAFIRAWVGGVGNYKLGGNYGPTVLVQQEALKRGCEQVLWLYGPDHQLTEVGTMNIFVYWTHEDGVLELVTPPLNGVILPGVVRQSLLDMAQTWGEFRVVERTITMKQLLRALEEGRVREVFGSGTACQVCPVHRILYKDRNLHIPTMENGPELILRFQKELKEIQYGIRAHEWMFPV
UniProt P54687, whole entry: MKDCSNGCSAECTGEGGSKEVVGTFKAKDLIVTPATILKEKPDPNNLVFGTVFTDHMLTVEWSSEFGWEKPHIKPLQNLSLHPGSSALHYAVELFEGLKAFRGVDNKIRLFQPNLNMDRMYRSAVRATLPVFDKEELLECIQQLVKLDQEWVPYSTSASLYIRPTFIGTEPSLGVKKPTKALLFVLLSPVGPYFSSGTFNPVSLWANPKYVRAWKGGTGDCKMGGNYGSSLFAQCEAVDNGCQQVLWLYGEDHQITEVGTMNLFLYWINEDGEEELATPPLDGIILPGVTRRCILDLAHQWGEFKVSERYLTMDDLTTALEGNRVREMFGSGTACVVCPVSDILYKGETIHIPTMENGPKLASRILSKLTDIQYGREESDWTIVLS

The target of assay [1] is mitochondrial branched-chain amino acid transaminase (BCATm, hBCATm, hBCAT2) (Homo sapiens, UniProt O15382). In words: cell-free enzyme-coupled assay with recombinant enzyme (Glutamate-Glo luminescence readout), 10-point dose-response.
Assay [2] addresses cytosolic branched-chain amino acid transaminase (BCATc, hBCATc, hBCAT1) (Homo sapiens, UniProt P54687). Described as above.

With `CNC(=O)c1cc2nc(-c3ccccn3)n([C@@H]3CCC[C@H](NC(=O)c4ccc(Br)s4)C3)c2cc1F`, the IC50 in assay [1] is 17 nM; in assay [2], 508 nM.

Usually IC50 stands for the concentration needed to halve the response being measured.
